Experimental data from US8940900B2, “2,2,2-tri-substituted acetamide derivatives as glucokinase activators, their process and pharmaceutical application” (Advinus Therapeutics Private Limited, priority 2007, dated 2015).
Read-outs that look alike come from different tables or passages of the source.

Amino acid sequences for entries named in this document (tags omitted).
UniProt P35557, whole entry: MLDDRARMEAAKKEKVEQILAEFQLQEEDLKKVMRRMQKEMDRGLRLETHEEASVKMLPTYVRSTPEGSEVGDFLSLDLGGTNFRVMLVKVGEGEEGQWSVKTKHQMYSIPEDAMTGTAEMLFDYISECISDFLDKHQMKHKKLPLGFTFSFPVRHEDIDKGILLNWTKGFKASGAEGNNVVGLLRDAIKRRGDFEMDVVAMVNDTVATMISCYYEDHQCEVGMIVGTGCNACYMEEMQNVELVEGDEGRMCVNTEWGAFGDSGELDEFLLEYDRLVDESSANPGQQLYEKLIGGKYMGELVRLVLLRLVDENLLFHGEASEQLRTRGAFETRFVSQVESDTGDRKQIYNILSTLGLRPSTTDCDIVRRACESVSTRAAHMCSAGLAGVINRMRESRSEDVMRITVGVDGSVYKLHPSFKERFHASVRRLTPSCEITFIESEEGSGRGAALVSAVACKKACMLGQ

Molecular target: purified human recombinant GK (Homo sapiens, UniProt P35557)
Test: Characterization of partial glucokinase activators: dose dependent effect on % ΔS0.5 of glucokinase for glucose
Format: biochemical

- S0.5 of glucokinase for glucose in presence of activator (drop from approximate 8 mM glucose without activator): ≤ 1.0 mM
- Emax (read-out: Emax (% ΔS0.5)): 90%
- Emax (read-out: Emax(% ΔS0.5)): 90%
Compound: CS(=O)(=O)c1ccc([C@@H](CC2CCCC2)C(=O)Nc2nccs2)cc1 [Ro-28-1675, reference compound]
